Entries after “also recorded” stand apart in the source; their conditions may differ.
Experiments:
[1] = Peptide hydrolysis in Hepes buffer alone or with Cu2+/Zn2+, followed by HPLC-ESI/MS; format: physicochemical; conditions: for Fragment amount of Aβ16 detected by HPLC-MS (row Aβ16 = intact peptide): 50 mM Hepes pH 7.4, 37 °C, HPLC-ESI/MS relative % area; for Remaining amount of Aβ16 and species detected by LC-MS (Table S1) / Remaining amount of Aβ28 and species detected by LC-MS (Table S2): 50 mM HEPES pH 7.4, 4 °C, LC-MS relative % area
Description: Herein, we analyzed the hydrolytic process of Aβ peptides in 50 mM Hepes buffer at 7.4 physiological pH over two weeks at two distinct temperatures, 4 °C and 37 °C, using mass spectrometry coupled with high-performance liquid chromatography (HPLC-MS) for precise analysis. Additionally, we explored the impact of copper(II) or zinc(II) ions, each added in a 1:1 molar ratio to the peptides, on the resulting hydrolytic fragmentation patterns. It is worth noting that metal binding only occurs at the N-terminal region of Aβ peptides, specifically interacting with histidine residues. The commonly accepted peptide sequence 1–16 (^1DAEFRHDSGYEVHHNK^16, Aβ16) is widely used as a model for this interaction due to its inclusion of all three histidines (His6, His13, and His14) known for their key roles in coordinating metal ions. Therefore, the initial studies were performed on this short peptide. Aβ16 has the further advantage of minimizing the aggregation processes that normally occur with longer Aβ peptides. In the latter case, the co-presence of hydrolytic and aggregation/precipitation pathways in the peptide mixtures could preclude the detection and the quantitative estimation of the fragmentation patterns. In this way, the hydrolytic products have been easily identified through b and y fragments in the MS/MS signals and quantified via their relative percentage areas in the LC-MS chromatograms.
General. All chemicals were of reagent grade and purchased from Sigma-Aldrich. Preparative HPLC was carried out with a Shimadzu LC-20AD Prominence instrument equipped with a diode array detector. Mass spectra and LCMS/MS data were performed with an LCQ ADV MAX ion-trap mass spectrometer equipped with an ESI ion source. The instrument was run in an automated LC-MS/MS mode and using a surveyor HPLC system (Thermo Finnigan, San Jose, CA, USA) equipped with a Phenomenex Jupiter 4u Proteo column (4 μm, 150 × 2.0 mm). For the analysis of peptide fragments, Bioworks 3.1 and Xcalibur 2.0.7 SP1 software were used (Thermo Finnigan, San Jose, CA, USA).
Peptide hydrolysis in the presence of metal ions. Solutions of Aβ16 and Aβ28 (500 µM) alone or with the addition of Cu(NO3)2 (1 eqv., 500 µM) or ZnCl2 (1 eqv., 500 µM) were prepared in 50 mM Hepes buffer at pH 7.4. The solutions were then incubated at 4 °C or 37 °C (only for Aβ16) in atmospheric air and every 7 days aliquots were taken, diluted to the 25 µM final concentration with Hepes buffer, and analyzed by HPLC-ESI/MS. The solution of R1τ, Ac-R1τ, αSyn15, and Ac-αSyn15 (25 µM) fragments were incubated in 50 mM Hepes buffer at 4 °C for 14 days; at the same time, solutions also containing copper(II) or zinc(II) in a 1:1 molar ratio respect to peptide were prepared. The elution was performed by using 0.1% HCOOH in distilled water (solvent A) and 0.1% HCOOH in acetonitrile (solvent B), with a flow rate of 0.2 mL/min. Elution started with 98% solvent A for 5 min, followed by a linear gradient from 98 to 55% A in 55 min. MS/MS experiments by collision-induced dissociation (CID) were performed with an isolation width of 2 Th (m/z); the activation amplitude was around 35% of the ejection radiofrequency (RF) amplitude of the instrument. For the analysis of peptide fragments, Bioworks 3.1 and Xcalibur 2.0.7 SP1 software were used (Thermo Finnigan, San Jose, CA, USA).

[2] = 50 mM Hepes buffer at pH 7.4 with ZnCl2 (1 eqv., 500 µM)
[3] = HEPES buffer (50 mM) pH 7.4, Aβ16 alone; conditions: 4 °C, up to 21 days
[4] = 50 mM Hepes buffer at pH 7.4, peptide alone; conditions: 37 °C, up to 14 Days
[5] = 50 mM Hepes buffer at pH 7.4 with Cu(NO3)2 (1 eqv., 500 µM); conditions: 37 °C, up to 21 Days
[6] = HEPES buffer (50 mM) pH 7.4 with 500 µM zinc(II) chloride (Aβ16); conditions: 4 °C, up to 21 days
[7] = HEPES buffer (50 mM) pH 7.4 with 500 µM copper(II) nitrate (Aβ16); conditions: 4 °C, up to 21 days
[8] = hydrolytic stability, Aβ16 500 µM alone, atmospheric air, 7 days, aliquot diluted to 25 µM
[9] = hydrolytic stability, Aβ16 500 µM alone, atmospheric air, 14 days
[10] = Aβ16 500 µM + 500 µM copper(II) nitrate (1 equiv.), 7 days
[11] = Aβ16 500 µM + 500 µM copper(II) nitrate (1 equiv.), 14 days
[12] = Aβ16 500 µM + 500 µM copper(II) nitrate (1 equiv.), 21 days
[13] = Aβ16 500 µM + 500 µM zinc(II) chloride (1 equiv.), 21 days
[14] = Aβ16 500 µM + 500 µM zinc(II) chloride, 21 days
[15] = Aβ28 500 µM + 500 µM copper(II) nitrate, 21 days
[16] = Aβ28 500 µM + 500 µM zinc(II) chloride, 14 days
[17] = Aβ28 500 µM + 500 µM zinc(II) chloride, 21 days

AEFRHDSGYEVHH [hydrolytic fragment 2–14 of Aβ16]
Fragment amount of Aβ16 detected by HPLC-MS (row Aβ16 = intact peptide) [1, 8]: 2% | Fragment amount of Aβ16 detected by HPLC-MS (row Aβ16 = intact peptide) [1, 9]: 2%

DAEFRHDSGYEV [hydrolytic fragment 1–12 of Aβ16]
Fragment amount of Aβ16 detected by HPLC-MS (row Aβ16 = intact peptide) [1, 10]: 2% | Fragment amount of Aβ16 detected by HPLC-MS (row Aβ16 = intact peptide) [1, 11]: 7% | Fragment amount of Aβ16 detected by HPLC-MS (row Aβ16 = intact peptide) [1, 12]: 13% | Fragment amount of Aβ16 detected by HPLC-MS (row Aβ16 = intact peptide) [1, 13]: 5% | Fragment amount of Aβ16 detected by HPLC-MS (row Aβ16 = intact peptide) [1, 9]: 2%

DAEFRHDSGYEVH [hydrolytic fragment 1–13 of Aβ16 and Aβ28]
Fragment amount of Aβ16 detected by HPLC-MS (row Aβ16 = intact peptide) [1, 10]: 2% | Fragment amount of Aβ16 detected by HPLC-MS (row Aβ16 = intact peptide) [1, 11]: 8% | Fragment amount of Aβ16 detected by HPLC-MS (row Aβ16 = intact peptide) [1, 12]: 13% | Remaining amount of Aβ16 and species detected by LC-MS (Table S1) ([1]; Aβ16 500 µM + 500 µM copper(II) nitrate, 21 days): 2% | Fragment amount of Aβ16 detected by HPLC-MS (row Aβ16 = intact peptide) ([1]; Aβ16 500 µM + 500 µM zinc(II) chloride (1 equiv.), 7 days): 7% | Fragment amount of Aβ16 detected by HPLC-MS (row Aβ16 = intact peptide) ([1]; Aβ16 500 µM + 500 µM zinc(II) chloride (1 equiv.), 14 days): 13% | Fragment amount of Aβ16 detected by HPLC-MS (row Aβ16 = intact peptide) [1, 13]: 51% | Remaining amount of Aβ16 and species detected by LC-MS (Table S1) ([1]; Aβ16 500 µM + 500 µM zinc(II) chloride, 7 days): 1% | Remaining amount of Aβ16 and species detected by LC-MS (Table S1) ([1]; Aβ16 500 µM + 500 µM zinc(II) chloride, 14 days): 1% | Remaining amount of Aβ16 and species detected by LC-MS (Table S1) [1, 14]: 3% | Remaining amount of Aβ16 and species detected by LC-MS (Table S1) ([1]; Aβ16 500 µM alone, 14 days): 6% | Remaining amount of Aβ16 and species detected by LC-MS (Table S1) ([1]; Aβ16 500 µM alone, 21 days): 3% | Remaining amount of Aβ28 and species detected by LC-MS (Table S2) [1, 15]: 3% | Remaining amount of Aβ28 and species detected by LC-MS (Table S2) [1, 16]: 2% | Remaining amount of Aβ28 and species detected by LC-MS (Table S2) [1, 17]: 5% | Remaining amount of Aβ28 and species detected by LC-MS (Table S2) ([1]; Aβ28 500 µM alone, 14 days): 3% | Fragment amount of Aβ16 detected by HPLC-MS (row Aβ16 = intact peptide) [1, 8]: 17% | Fragment amount of Aβ16 detected by HPLC-MS (row Aβ16 = intact peptide) [1, 9]: 19%

DAEFRHDSGYEVHH [hydrolytic fragment 1–14 of Aβ16]
Fragment amount of Aβ16 detected by HPLC-MS (row Aβ16 = intact peptide) [1, 10]: 2% | Fragment amount of Aβ16 detected by HPLC-MS (row Aβ16 = intact peptide) [1, 12]: 2% | Remaining amount of Aβ16 and species detected by LC-MS (Table S1) [1, 14]: 1% | Remaining amount of Aβ16 and species detected by LC-MS (Table S1) ([1]; Aβ16 500 µM alone, 14 days): 2% | Remaining amount of Aβ16 and species detected by LC-MS (Table S1) ([1]; Aβ16 500 µM alone, 21 days): 4% | Fragment amount of Aβ16 detected by HPLC-MS (row Aβ16 = intact peptide) [1, 8]: 3% | Fragment amount of Aβ16 detected by HPLC-MS (row Aβ16 = intact peptide) [1, 9]: 8%

DAEFRHDSGYEVHHNK-NH2
cleaved bond ([2]; 4 °C, up to 21 days): H13-H14, 7 days

DAEFRHDSGYEVHHQ [hydrolytic fragment 1–15 of Aβ16 and Aβ28]
Remaining amount of Aβ16 and species detected by LC-MS (Table S1) ([1]; Aβ16 500 µM alone, 21 days): 3% | Remaining amount of Aβ28 and species detected by LC-MS (Table S2) ([1]; Aβ28 500 µM + 500 µM copper(II) nitrate, 14 days): 1% | Remaining amount of Aβ28 and species detected by LC-MS (Table S2) [1, 15]: 4% | Remaining amount of Aβ28 and species detected by LC-MS (Table S2) [1, 16]: 12% | Remaining amount of Aβ28 and species detected by LC-MS (Table S2) [1, 17]: 20% | Remaining amount of Aβ28 and species detected by LC-MS (Table S2) ([1]; Aβ28 500 µM alone, 14 days): 17%

^1DAEFRHDSGYEVHHNK^16-NH2
cleaved bond [3]: E11-V12, 14 days; also recorded: H13-H14, 14 days | cleaved bond [4]: His13-His14, 7 Days | fragment found [4]: DAEFRHD (1–7), 7 Days; also recorded: DAEFRHDSGYEV (1–12), 14 Days; also recorded: SGYEVH (8–13), 7 Days; also recorded: AEFRHDSGYE (2–11), 7 Days; also recorded: AEFRHDSGYEVHH (2–14), 7 Days | fragment found ([2]; 37 °C, up to 21 Days): SGYEVH (8–13), 14 Days; also recorded: FRHDSGYEVH (4–13), 7 Days; also recorded: DAEFRHDSGYE (1–11), 21 Days; also recorded: DAEFRHDSGYEVH (1–13), 7 Days; also recorded: DAEFRHDSGYEV (1–12), 21 Days | fragment found [5]: FRHDSGYEVH (4–13), 7 Days; also recorded: DAEFRHDSGYEVHH (1–14), 7 Days; also recorded: DAEFRHDSGYE (1–11), 14 Days; also recorded: DAEFRHDSGYEVH (1–13), 7 Days; also recorded: DAEFRHDSGYEV (1–12), 7 Days | cleaved bond [6]: Y10-E11, 14 days; also recorded: H13-H14, 7 days | cleaved bond [7]: E11-V12, 21 days; also recorded: H13-H14, 21 days | fragment found [7]: pyruvate(D)-AEFRH…. 1*-16, 21 days
